Here are results for 68 molecules from PubChem BioAssay AID651687 (Broad Institute, 2012).

The list shows a part of the results, in another mix than the full data. Some salts or complexes appear as unconnected parts, following the source record. Calls of active or inactive are those of the source.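 How the source made its calls: active means every replicate shows inhibition of at least 40%; inconclusive means mean inhibition at least 40% but some replicate below; inactive means the rest.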

A short description of this assay: compounds lowering acetylated PGC1a in cells – cell-based, U2OS, AlphaScreen, inhibitor mode, primary screen (AID 651687).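 Further: 0% = neutral control wells and 100% = positive control wells.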 The note with it: U2OS PGC1a acetylation, AlphaScreen anti-acetyl-lysine; at 15.6 µM; hits give high values; with virally co-expressed GCN5 acetyltransferase. Background: Alpha assays give light when donor and acceptor beads are brought close together.
As to `COc1ccccc1OP(C)(=O)Nc1ccc(C)c(C)c1` (stereo not drawn), the inhibition was inactive: -8.49%.

`Cc1cc(C)cc(OP(C)(=O)Nc2cccc(C(F)(F)F)c2)c1` (stereo not drawn): the inhibition is inactive: -1.91%. The same measure for `O=C1C(O)=C([N+](=O)[O-])C(=O)C(O)=C1[N+](=O)[O-]`: inactive: 5.12%; for `COc1ccccc1OP(C)(=O)Nc1ccc(C)cc1C` (stereo not drawn): inactive: -5.2%. Regarding `CP(=O)(Nc1ccccn1)Oc1ccccc1` (stereo not drawn), the inhibition was inactive: -17.5%. The same measure for `CCc1ccc(OP(C)(=O)O)cc1`: inactive: -1.18%; for `O=[N+]([O-])c1cc([N+](=O)[O-])c(Nc2ccccn2)c([N+](=O)[O-])c1`: inactive: 6.39%; for `COc1ccc(OP(C)(=O)Nc2ccccn2)cc1` (stereo not drawn): inactive: 8.72%. For the molecule `CN(C)CCOC(=O)C(O)(c1ccccc1)C1CCCC1` (stereo not drawn), the inhibition was inactive: 0.135%. For `COc1ccccc1OP(C)(=O)Nc1ccc(Br)cc1` (stereo not drawn), the inhibition was inactive: -3.86%. The same measure for `COc1ccccc1OP(C)(=O)Nc1ccccc1Br` (stereo not drawn): inactive: 0.073%. In the case of `CC(C)(C)c1ccc(OP(C)(=O)O)cc1`, the inhibition was inactive: 8.62%.

Turning to `CP(=O)(Nc1ccc(Cl)cc1)Oc1ccc(F)cc1` (stereo not drawn), the inhibition is inactive: 0.591%.

On to `O=C(OCCCN1CCCC1)C(O)(c1ccccc1)C1CCCCC1` (stereo not drawn), for which the inhibition is inactive: -4.07%.

In the case of `COc1ccccc1OP(C)(=O)Nc1c(C)n(C)n(-c2ccccc2)c1=O` (stereo not drawn), the inhibition is inactive: 2.61%. The same measure for `CCc1ccc(OP(C)(=O)Nc2cccnc2)cc1` (stereo not drawn): inactive: 9.38%. The same measure for `CP(=O)(Oc1ccccc1)N1CCOC1=O` (stereo not drawn): inactive: 4.24%; for `COc1ccc(OP(C)(=O)Nc2ccc(Br)cc2)cc1` (stereo not drawn): inactive: -2.27%; for `CCN(CC)CC(O)COC(=O)C(O)(c1ccccc1)C1CCCCC1` (stereo not drawn): inactive: -7.95%. Turning to `CCOC(=O)c1ccc(NP(C)(=O)Oc2ccc(Cl)cc2)cc1` (stereo not drawn), the inhibition is inactive: -6.82%. The same measure for `CP(=O)(OC12CC3CC(CC(C3)C1)C2)OC12CC3CC(CC(C3)C1)C2`: inactive: -4.57%; for `Cc1c(C(c2ccc3c(c2)OCO3)c2c(C)n(C)n(-c3ccccc3)c2=O)c(=O)n(-c2ccccc2)n1C.O=[N+]([O-])c1cc([N+](=O)[O-])c(O)c([N+](=O)[O-])c1`: inactive: -9.48%; for `Cc1cc(-c2cccc3ccccc23)c(C)cn1.O=[N+]([O-])c1cc([N+](=O)[O-])c(O)c([N+](=O)[O-])c1`: inactive: -2.23%. The same measure for `CN(C)CCOC(=O)C(O)(c1ccccc1)C1CCCCC1` (stereo not drawn): inactive: 2.32%; for `COc1ccc(NP(C)(=O)Oc2ccccc2OC)cc1` (stereo not drawn): inactive: 17.9%.

Take `COc1ccc(OP(C)(=O)Nc2cccc(Br)c2)cc1` (stereo not drawn): the inhibition was inactive: 11.9%.

In the case of `Cc1ccccc1NP(C)(=O)Nc1ccccc1C`, the inhibition is inactive: 6.39%. Take `CP(=O)(Nc1ccc2c(c1)OCCO2)Oc1ccccc1` (stereo not drawn): the inhibition was inactive: 13.5%. Then `CCOP(C)(=S)SCC(=O)NC(C)(CC)C(=O)O` (stereo not drawn), with inactive: -12.6%; and `CP(=O)(Nc1ccc(SC(F)(F)F)cc1)Oc1ccc(F)cc1` (stereo not drawn), with inactive: 8.13%; and `COc1ccc2c(c1O)-c1c(O)c(OC)cc3c1[C@H](C2)[N+](C)(C)CC3.O=[N+]([O-])c1cc([N+](=O)[O-])c([O-])c([N+](=O)[O-])c1[O-]`, with inactive: 12.7%. Then `CP(=O)(Nc1ccccc1F)Oc1ccccc1` (stereo not drawn), with inactive: 7.82%. Consider `O=[N+]([O-])c1cc([N+](=O)[O-])c(Nc2ccc(Cl)cc2)c([N+](=O)[O-])c1`, for which the inhibition is inactive: 6.63%. The same measure for `CP(=O)(Nc1ccccc1)Oc1ccc(F)cc1` (stereo not drawn): inactive: -3.51%. Regarding `O=[N+]([O-])c1cc([N+](=O)[O-])c(OC2CCCCC2O)c([N+](=O)[O-])c1` (stereo not drawn), the inhibition is inactive: 6.28%. The same measure for `CCCCCOc1ccc(NP(C)(=O)Oc2ccc(Cl)cc2Cl)cc1` (stereo not drawn): inactive: -3.88%.

Turning to `Cc1c([N+](=O)[O-])cc([N+](=O)[O-])c(Br)c1[N+](=O)[O-]`, the inhibition was inactive: -0.105%. In the case of `CCN(CC)CCCOC(=O)C(O)(c1ccccc1)C1CCCCC1` (stereo not drawn), the inhibition is inactive: -1.44%.

Turning to `COc1ccc(OP(C)(=O)Nc2ccc(SC(F)(F)F)cc2)cc1` (stereo not drawn), the inhibition was inactive: -10.1%. Turning to `CC1=NCCc2c1[nH]c1ccccc21.O=[N+]([O-])c1cc([N+](=O)[O-])c(O)c([N+](=O)[O-])c1`, the inhibition is inactive: -4.31%. Then `O=C(O)c1cccc(Nc2c([N+](=O)[O-])cc([N+](=O)[O-])cc2[N+](=O)[O-])c1`, with inactive: 2.15%; and `Cc1ccc(C)c(NP(C)(=O)Oc2ccccc2)c1` (stereo not drawn), with inactive: 5.54%.

Consider `Cc1cc(C)cc(OP(C)(=O)Nc2ccccn2)c1` (stereo not drawn), for which the inhibition is inactive: 4.99%. Then `CP(=O)(Nc1cccc(Br)c1)Oc1ccccc1` (stereo not drawn), with inactive: -22.2%; and `Cc1cc(C)cc(OP(C)(=O)Nc2ccc(C)cc2C)c1` (stereo not drawn), with inactive: 1.39%. For the molecule `COc1ccccc1OP(C)(=O)Nc1cccc(Br)c1` (stereo not drawn), the inhibition was inactive: -6.08%. Then `O=[N+]([O-])c1cc([N+](=O)[O-])c(-c2cnn(-c3ccccc3)c2)c([N+](=O)[O-])c1`, with inactive: 10.8%; and `CN(Cc1cccnc1)C(=O)COc1ccc(Cl)c(Cl)c1.O=[N+]([O-])c1cc([N+](=O)[O-])c(O)c([N+](=O)[O-])c1`, with inactive: 0.431%; and `O=[N+]([O-])c1cc([N+](=O)[O-])c(-n2nnc3ccccc32)c([N+](=O)[O-])c1`, with inactive: -2.95%. Take `CCCOc1ccc(NP(C)(=O)Oc2ccc(Cl)cc2)cc1` (stereo not drawn): the inhibition is inactive: 72.1%. The same measure for `COc1ccccc1OP(C)(=O)Nc1c(C)cccc1C` (stereo not drawn): inactive: 10.2%; for `CCOC(=O)C(CC)C1=NC(C)(C)Cc2ccccc21.O=[N+]([O-])c1cc([N+](=O)[O-])c(O)c([N+](=O)[O-])c1` (stereo not drawn): inactive: 4.34%.

Take `CC1=C2N=C(C=C3N=C(C(C)=C4[N-][C@@](C)([C@@H]5N=C1[C@](C)(CCC(=O)NC[C@@H](C)OP(=O)([O-])O[C@H]1[C@@H](O)[C@@H](n6cnc7cc(C)c(C)cc76)O[C@@H]1CO)[C@H]5CC(N)=O)[C@@](C)(CC(N)=O)[C@@H]4CCC(N)=O)[C@@](C)(CC(N)=O)[C@@H]3CCC(N)=O)C(C)(C)[C@@H]2CCC(N)=O.[C-]#N.[Co+3]`: the inhibition is inactive: -2.84%. The same measure for `CP(=S)(Nn1cnnc1)Oc1ccccc1` (stereo not drawn): inactive: 24.3%. As to `CP(=O)(Nc1ccccn1)Oc1ccc(Cl)cc1` (stereo not drawn), the inhibition is inactive: -16%. On to `CCOC(=O)c1ccc(NP(C)(=O)Oc2ccc(OC)cc2)cc1` (stereo not drawn), for which the inhibition is inactive: -6.63%. The same measure for `O=[N+]([O-])c1cc([N+](=O)[O-])c(O)c([N+](=O)[O-])c1.c1ccc(Oc2ccncc2)cc1`: inactive: -9.84%; for `CCOP(C)(=S)SCC(=O)NC(C)C(=O)O` (stereo not drawn): inactive: 4.58%; for `CCc1ccc(OP(C)(=O)N2CCN(c3ccc([N+](=O)[O-])cc3)CC2)cc1` (stereo not drawn): inactive: -2.13%. On to `Cc1ccc(Nc2c([N+](=O)[O-])cc([N+](=O)[O-])cc2[N+](=O)[O-])cc1`, for which the inhibition was inactive: -12.6%. Consider `CP(=O)(Nc1ccc(SC(F)(F)F)cc1)Oc1ccc(Cl)cc1` (stereo not drawn), for which the inhibition is inactive: -8.74%.

Regarding `Cc1cc(C)cc(OP(C)(N)=O)c1` (stereo not drawn), the inhibition was inactive: -6.41%. Then `COc1ccc(OP(C)(=O)Nc2cccc(F)c2)cc1` (stereo not drawn), with inactive: -0.503%; and `COc1ccccc1OP(C)(=O)Nc1cc(Cl)ccc1C` (stereo not drawn), with inactive: -5.91%. The same measure for `Cc1ccc(NP(C)(=O)Oc2ccccc2)c(C)c1` (stereo not drawn): inactive: 48.1%; for `COc1ccccc1OP(C)(=O)Nc1ccc(C)cc1` (stereo not drawn): inactive: 8.38%.

On to `CCOC(=O)c1ccc(NP(C)(=O)Oc2ccccc2)cc1` (stereo not drawn), for which the inhibition was inactive: 24.3%. The same measure for `Cc1cccc(C)c1OP(C)(N)=O` (stereo not drawn): inactive: -3.92%.

What is called inhibition is the drop in the measured response relative to a control, in per cent.
